Measurements published in BindingDB's records for patent US10703749 (Janssen Pharmaceutica, 2020).

Amino acid sequences for entries named in this document (tags omitted). A change or cut given only in a name is not applied to a line headed by its entry.
UniProt Q99572: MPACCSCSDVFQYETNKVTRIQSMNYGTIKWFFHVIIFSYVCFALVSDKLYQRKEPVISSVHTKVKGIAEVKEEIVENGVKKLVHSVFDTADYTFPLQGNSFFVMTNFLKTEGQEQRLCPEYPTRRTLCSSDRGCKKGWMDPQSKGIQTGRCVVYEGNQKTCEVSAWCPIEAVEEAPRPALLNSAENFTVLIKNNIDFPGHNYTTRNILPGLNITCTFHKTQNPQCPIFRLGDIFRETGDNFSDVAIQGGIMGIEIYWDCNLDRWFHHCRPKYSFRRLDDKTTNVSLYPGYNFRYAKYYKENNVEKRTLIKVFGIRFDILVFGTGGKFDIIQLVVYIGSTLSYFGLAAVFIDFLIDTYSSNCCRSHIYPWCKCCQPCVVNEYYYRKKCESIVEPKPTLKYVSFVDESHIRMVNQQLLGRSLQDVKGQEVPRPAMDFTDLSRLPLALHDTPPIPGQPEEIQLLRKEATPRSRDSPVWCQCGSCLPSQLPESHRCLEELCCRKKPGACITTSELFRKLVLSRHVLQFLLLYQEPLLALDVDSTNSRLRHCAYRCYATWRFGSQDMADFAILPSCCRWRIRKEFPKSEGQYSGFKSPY

Columns and labels:
[1] = biological target: T1, P2X purinoceptor 7 (Rattus norvegicus, UniProt Q64663); assay: Radioligand Binding
T1 sequence (Q64663 whole entry): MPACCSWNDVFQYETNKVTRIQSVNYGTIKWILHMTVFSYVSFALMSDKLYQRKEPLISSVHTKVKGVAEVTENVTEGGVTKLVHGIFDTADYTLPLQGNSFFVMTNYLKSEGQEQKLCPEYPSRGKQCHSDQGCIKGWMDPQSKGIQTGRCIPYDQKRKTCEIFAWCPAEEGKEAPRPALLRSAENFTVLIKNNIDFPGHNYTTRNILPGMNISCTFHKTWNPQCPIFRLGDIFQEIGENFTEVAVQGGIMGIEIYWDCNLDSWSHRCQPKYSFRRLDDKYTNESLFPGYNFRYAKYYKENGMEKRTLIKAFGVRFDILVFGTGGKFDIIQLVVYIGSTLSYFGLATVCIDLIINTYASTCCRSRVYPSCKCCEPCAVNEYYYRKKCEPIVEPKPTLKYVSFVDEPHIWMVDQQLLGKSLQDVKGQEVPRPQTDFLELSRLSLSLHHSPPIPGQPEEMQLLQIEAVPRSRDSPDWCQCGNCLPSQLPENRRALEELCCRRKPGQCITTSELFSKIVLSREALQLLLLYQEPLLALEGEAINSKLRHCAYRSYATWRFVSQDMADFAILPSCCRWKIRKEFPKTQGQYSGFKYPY

[2] = biological target: P2X purinoceptor 7 (Homo sapiens, UniProt Q99572); assay: Radioligand Binding

IC50 [1]: 5650 nM
IC50 [2]: 113 nM
Ki [2]: 22.4 nM
Structure (SMILES): C[C@H]1CC2=C(CN1C(=O)c1cccc(C(F)(F)F)c1)NNN2c1ncc(F)cn1 [US10703749, Example 304]
